From US11963939B2, “Use of N-acetylcysteine to treat central nervous system disorders” (Neuronasal, Inc., priority 2017, dated 2024)

Target: T1, recombinant ALOX5 (Homo sapiens, UniProt P09917)
T1 sequence (P09917 1-674): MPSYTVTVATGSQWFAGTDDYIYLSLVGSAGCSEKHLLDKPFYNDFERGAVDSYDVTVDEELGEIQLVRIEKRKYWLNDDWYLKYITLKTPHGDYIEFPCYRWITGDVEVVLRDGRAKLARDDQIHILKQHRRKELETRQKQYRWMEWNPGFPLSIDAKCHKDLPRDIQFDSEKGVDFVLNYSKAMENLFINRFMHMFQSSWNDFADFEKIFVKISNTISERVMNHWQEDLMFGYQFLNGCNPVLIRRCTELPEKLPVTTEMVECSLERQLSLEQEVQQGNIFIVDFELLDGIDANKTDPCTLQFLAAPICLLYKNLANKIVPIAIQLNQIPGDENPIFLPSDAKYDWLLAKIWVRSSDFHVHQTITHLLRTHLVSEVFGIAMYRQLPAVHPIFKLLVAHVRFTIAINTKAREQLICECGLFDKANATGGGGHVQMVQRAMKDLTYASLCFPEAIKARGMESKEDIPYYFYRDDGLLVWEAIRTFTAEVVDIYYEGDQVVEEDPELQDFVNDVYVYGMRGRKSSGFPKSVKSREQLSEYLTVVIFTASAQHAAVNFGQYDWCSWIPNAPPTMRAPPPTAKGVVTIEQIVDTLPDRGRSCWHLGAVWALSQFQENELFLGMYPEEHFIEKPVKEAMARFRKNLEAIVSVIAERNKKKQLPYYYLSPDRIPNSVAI
Experiment: Lipoxygenase UV/Vis-based IC50 assay with recombinant ALOX5
Assay type: biochemical
Details: test tube assay
Procedure: Lipoxygenase UV/Vis-based IC50 assay: Inhibition potencies were determined by following the formation of conjugated diene products, 5-HpETE [ε=27000 M^−1 cm^−1 for AA turnover) at 234 nm using a UV/Vis spectrophotometer. All reaction mixtures were 2 mL in volume, and the reaction mixtures were constantly stirred using a magnetic stir bar at room temperature (23° C.). All reactions were carried out in a buffer containing 200 μM ATP and 10 μM AA. The AA concentration of a sample was verified by full turnover with soybean-1 lipoxygenase and quantifying the product concentration. Inhibitors were stored in DMSO at −20° C. Enzymatic reactions were initiated by adding approximately 100 nM-300 nM ammonium sulfate-precipitated wildtype enzyme. IC50 values were obtained by determining the enzymatic rate at a minimum of five inhibitor concentrations, plotting the enzymatic rate against inhibitor concentration, and performing a hyperbolic saturation curve fit. Inhibitor concentrations were assayed in duplicate or triplicate.
Significance was determined by two-way ANOVA and Bonferroni's post hoc test.

Inhibition of ALOX5 activity: effective in inhibiting ALOX5
Structure (SMILES): CC(=O)N(O)C/C=C/c1cccc(Oc2ccccc2)c1 [BW A4C]
